Assay results: article PMC11219871, “Epigenetic-based differentiation therapy for Acute Myeloid Leukemia” (Nature Communications, 2024)

What was measured:
Experiment in all cases: Cell proliferation assay: GI50
Type in all cases: cell-based, human
MOLM-13 = test system: MOLM-13
MV4-11 = test system: MV4-11
HL-60 = test system: HL-60
ML-2 = test system: ML-2

Measured: GI50

CCNC(=O)C[C@@H]1N=C(c2ccc(Cl)cc2)c2cc(OC)ccc2-n2c(C)nnc21 [Molibresib]
> 10 µM: MOLM-13; Homo sapiens, MOLM-13, 48 h | MOLM-13; Homo sapiens, MOLM-13, MOLM-13, replicates 1-3, µM for the other inhibitors | MOLM-13; MOLM-13, replicates 1-3, µM for the other inhibitors | MV4-11; Homo sapiens, MV4-11, 48 h | MV4-11; Homo sapiens, MV4-11, MV4-11, replicates 1-3, µM for the other inhibitors | MV4-11; MV4-11, replicates 1-3, µM for the other inhibitors | HL-60; HL-60, replicates 1-3, µM for the other inhibitors | HL-60; Homo sapiens, HL-60, 48 h | HL-60; Homo sapiens, HL-60, HL-60, replicates 1-3, µM for the other inhibitors | ML-2; Homo sapiens, ML-2, 48 h | ML-2; Homo sapiens, ML-2, ML-2, replicates 1-3, µM for the other inhibitors | ML-2; ML-2, replicates 1-3, µM for the other inhibitors
